Two molecules from patent US20250129055A1, “GLUCOSIDE DERIVATIVE, AND PREPARATION METHOD THEREFOR AND APPLICATION THEREOF” (BEIJING INCREASE INNOVATIVE DRUG CO., LTD., priority 2020, published 2025) can be followed below.

Sequences of proteins named here, by UniProt entry; tags and fusion partners are left off.
UniProt P31639, whole entry: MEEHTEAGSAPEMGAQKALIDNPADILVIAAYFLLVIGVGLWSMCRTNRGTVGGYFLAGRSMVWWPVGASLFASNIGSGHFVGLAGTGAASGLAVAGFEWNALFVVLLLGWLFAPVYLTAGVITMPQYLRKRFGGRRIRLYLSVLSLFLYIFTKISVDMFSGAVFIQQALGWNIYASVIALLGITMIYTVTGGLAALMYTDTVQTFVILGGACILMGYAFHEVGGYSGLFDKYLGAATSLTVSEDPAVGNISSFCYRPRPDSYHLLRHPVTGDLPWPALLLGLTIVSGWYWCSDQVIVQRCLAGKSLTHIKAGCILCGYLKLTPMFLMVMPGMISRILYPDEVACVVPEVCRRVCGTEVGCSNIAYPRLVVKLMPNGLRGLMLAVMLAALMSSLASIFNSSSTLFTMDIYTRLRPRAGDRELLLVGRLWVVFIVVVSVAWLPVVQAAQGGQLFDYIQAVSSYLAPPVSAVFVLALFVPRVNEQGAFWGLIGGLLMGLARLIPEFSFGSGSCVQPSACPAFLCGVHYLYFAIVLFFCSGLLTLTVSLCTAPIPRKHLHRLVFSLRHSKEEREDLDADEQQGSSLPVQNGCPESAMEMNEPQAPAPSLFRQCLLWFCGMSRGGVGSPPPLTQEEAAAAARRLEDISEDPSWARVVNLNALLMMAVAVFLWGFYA

The assay has as its target SGLT2 (Homo sapiens (Human), UniProt P31639). As to the kind of experiment: In vitro SGLT2 inhibitory activity: 1-NBDG uptake by CHO-SGLT2 cells. The settings on record: read-out: IC50 inhibiting SGLT2. Format: cell-based.

The structures appear in SMILES notation.

As usually defined, the IC50 is the concentration at which inhibition is half-maximal. Consider `CO[C@H]1O[C@@H](c2ccc(Cl)c(Cc3ccc4c(c3)CC4)c2)[C@H](O)[C@@H](O)[C@@H]1O`, for which the IC50 stood at 1.36 nM.

For `CS[C@H]1O[C@@H](c2ccc(Cl)c(Cc3ccc4c(c3)CCO4)c2)[C@H](O)[C@@H](O)[C@@H]1O`, the IC50 came out at 3.52 nM.
